Reference: patent US20250019398A1, “NONAMERIC PEPTIDE HAVING EXCELLENT ANTIBACTERIAL ACTIVITY AGAINST GRAM-NEGATIVE BACTERIA AND ENANTIOMER THEREOF” (priority 2021, published 2025)

Key:
Format in all cases: cell-based
[1] = test system: all bacterial strains (standard and carbapenem-resistant Gram-negative bacteria); test: Mean MIC (GM) for all bacterial strains; details: all nine strains of Table 2
Protocol: The antimicrobial activities of the peptides were measured by a minimal inhibitory concentration (MIC) analysis. The MIC was determined using a broth dilution method. All bacterial strains were grown overnight at 37° C. in a Muller-Hinton (MH) medium.

[2] = test system: sheep red blood cells (sRBCs); test: Hemolysis of sheep red blood cells; details: 200 μM used when no detectable hemolysis at 100 μM
Protocol: Peptide-induced toxicity was determined by hemolysis of sheep red blood cells (sRBCs). Fresh sRBCs were washed three times or more with phosphate buffered saline (PBS), and debris was removed by centrifugation (1000×g, 5 minutes, 4° C.). All the peptides including a melittin control (0.2 to 100 μM) and a positive control (1% (v/v) Triton X-100) were cultured with 4% (v/v) sRBCs at 37° C. for 1 h, and then centrifuged at 1000×g for 5 minutes. The supernatant was measured at 405 nm using a microplate reader.

[3] = test system: Gram-negative bacteria versus sheep red blood cells; test: Relative selective index (HC10/GM of MIC); details: higher = greater selectivity for bacteria

## CC[C@H](C)[C@H](NC(=O)CN)C(=O)NCC(=O)N[C@@H](C)C(=O)N[C@H](C(=O)N[C@@H](CC(C)C)C(=O)N[C@@H](CCCCN)C(=O)N[C@H](C(=O)N[C@@H](CC(C)C)C(=O)N[C@H](C(=O)N[C@H](C(=O)NCC(=O)N[C@@H](CC(C)C)C(=O)N1CCC[C@H]1C(=O)N[C@@H](C)C(=O)N[C@@H](CC(C)C)C(=O)N[C@H](C(=O)N[C@@H](CO)C(=O)N[C@@H](Cc1c[nH]c2ccccc12)C(=O)N[C@H](C(=O)N[C@@H](CCCCN)C(=O)N[C@@H](CCCNC(=N)N)C(=O)N[C@@H](CCCCN)C(=O)N[C@@H](CCCNC(=N)N)C(=O)N[C@@H](CCC(N)=O)C(=O)N[C@@H](CCC(N)=O)C(N)=O)[C@@H](C)CC)[C@@H](C)CC)[C@@H](C)O)[C@@H](C)O)C(C)C)C(C)C [Melittin]
[1]
  GM (geometric mean of MIC values for all bacterial strains): 12.4 µM
[2]
  HC10 (peptide concentration that induces 10% hemolysis): 3.1 µM
[3]
  Relative selective index: 0.25
